How the values were obtained:
Experiment in all cases: radiometric filter-binding kinase assay, Kinase HotSpot
Settings in all cases: compound 0.5 µM; ATP 10 µM
[1] = target: ABL1 (human) (UniProt P00519)
[2] = target: ACVR1B (human) (UniProt P36896)
[3] = target: AKT1 (human) (UniProt P31749)
[4] = target: BLK (human) (UniProt P51451)
[5] = target: CAMK2A (human) (UniProt Q9UQM7)
[6] = target: CAMK2D (human) (UniProt Q13557)
[7] = target: CDC42BPB (human) (UniProt Q9Y5S2)
[8] = target: CHEK1 (human) (UniProt O14757)
[9] = target: CLK4 (human) (UniProt Q9HAZ1)
[10] = target: CSNK1G2 (human) (UniProt P78368)
[11] = target: CSNK2A2 (human) (UniProt P19784)
[12] = target: EPHA2 (human) (UniProt P29317)
[13] = target: GRK7 (human) (UniProt Q8WTQ7)
[14] = target: GSK3B (human) (UniProt P49841)
[15] = target: HIPK2 (human) (UniProt Q9H2X6)
[16] = target: MAP3K10 (human) (UniProt Q02779)
[17] = target: MAP3K14 (human) (UniProt Q99558)
[18] = target: MAPK11 (human) (UniProt Q15759)
[19] = target: MAPK8 (human) (UniProt P45983)
[20] = target: MAPKAPK2 (human) (UniProt P49137)
[21] = target: MARK1 (human) (UniProt Q9P0L2)
[22] = target: MARK3 (human) (UniProt P27448)
[23] = target: MINK1 (human) (UniProt Q8N4C8)
[24] = target: MKNK2 (human) (UniProt Q9HBH9)
[25] = target: MLTK (human) (UniProt Q9NYL2)
[26] = target: MYLK (human) (UniProt Q15746)
[27] = target: NEK1 (human) (UniProt Q96PY6)
[28] = target: NEK9 (human) (UniProt Q8TD19)
[29] = target: NTRK3 (human) (UniProt Q16288)
[30] = target: NUAK1 (human) (UniProt O60285)
[31] = target: PDGFRB (human) (UniProt P09619)
[32] = target: PIM1 (human) (UniProt P11309)
[33] = target: PIM2 (human) (UniProt Q9P1W9)
[34] = target: PKN2 (human) (UniProt Q16513)
[35] = target: PRKCB2 (human) (UniProt P05771)
[36] = target: PTK6 (human) (UniProt Q13882)
[37] = target: RPS6KA1 KD1 KD2 (human) (UniProt Q15418)
[38] = target: SLK (human) (UniProt Q9H2G2)
[39] = target: STK4 (human) (UniProt Q13043)
[40] = target: TBK1 (human) (UniProt Q9UHD2)
[41] = target: TGFBR2 (human) (UniProt P37173)
[42] = target: TSSK1B (human) (UniProt Q9BXA7)

By UniProt entry, the sequences of proteins in these tests, tags left out. Where a name states a change or a piece, a line headed by the entry shows the natural chain unless it says otherwise.
UniProt O14757: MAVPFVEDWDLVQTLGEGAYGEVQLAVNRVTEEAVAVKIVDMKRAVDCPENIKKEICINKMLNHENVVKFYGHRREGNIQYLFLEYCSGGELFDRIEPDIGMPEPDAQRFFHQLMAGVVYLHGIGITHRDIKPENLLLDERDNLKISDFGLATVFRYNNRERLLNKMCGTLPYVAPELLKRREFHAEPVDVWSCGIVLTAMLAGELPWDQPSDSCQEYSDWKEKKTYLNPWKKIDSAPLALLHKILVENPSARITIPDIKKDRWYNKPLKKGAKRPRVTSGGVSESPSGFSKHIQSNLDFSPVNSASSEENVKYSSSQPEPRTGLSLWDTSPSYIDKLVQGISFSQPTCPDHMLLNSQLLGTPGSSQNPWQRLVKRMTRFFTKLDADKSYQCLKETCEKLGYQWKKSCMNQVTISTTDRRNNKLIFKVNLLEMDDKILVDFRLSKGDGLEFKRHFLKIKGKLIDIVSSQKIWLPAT
UniProt P78368: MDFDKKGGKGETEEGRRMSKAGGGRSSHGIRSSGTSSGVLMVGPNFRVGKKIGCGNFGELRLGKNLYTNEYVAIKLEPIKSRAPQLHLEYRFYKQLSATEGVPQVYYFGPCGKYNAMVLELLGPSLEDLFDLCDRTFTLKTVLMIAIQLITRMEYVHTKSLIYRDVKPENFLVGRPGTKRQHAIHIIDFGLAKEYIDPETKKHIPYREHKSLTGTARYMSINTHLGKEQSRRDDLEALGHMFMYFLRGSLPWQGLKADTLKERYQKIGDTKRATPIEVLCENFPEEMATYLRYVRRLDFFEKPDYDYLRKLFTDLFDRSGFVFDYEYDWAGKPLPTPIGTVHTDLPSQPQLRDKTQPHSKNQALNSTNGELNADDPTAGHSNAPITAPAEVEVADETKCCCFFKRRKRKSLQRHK
UniProt P19784, whole entry, looked up: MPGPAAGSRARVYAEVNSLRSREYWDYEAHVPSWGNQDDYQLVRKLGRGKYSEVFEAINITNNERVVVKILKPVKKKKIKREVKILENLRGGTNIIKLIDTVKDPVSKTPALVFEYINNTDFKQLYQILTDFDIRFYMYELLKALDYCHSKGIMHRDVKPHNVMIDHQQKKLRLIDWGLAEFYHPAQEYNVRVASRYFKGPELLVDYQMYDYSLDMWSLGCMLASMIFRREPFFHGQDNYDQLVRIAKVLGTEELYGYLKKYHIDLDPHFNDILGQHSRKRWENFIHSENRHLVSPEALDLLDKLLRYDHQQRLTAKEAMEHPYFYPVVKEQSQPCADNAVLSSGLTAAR
UniProt Q15759, whole entry, looked up: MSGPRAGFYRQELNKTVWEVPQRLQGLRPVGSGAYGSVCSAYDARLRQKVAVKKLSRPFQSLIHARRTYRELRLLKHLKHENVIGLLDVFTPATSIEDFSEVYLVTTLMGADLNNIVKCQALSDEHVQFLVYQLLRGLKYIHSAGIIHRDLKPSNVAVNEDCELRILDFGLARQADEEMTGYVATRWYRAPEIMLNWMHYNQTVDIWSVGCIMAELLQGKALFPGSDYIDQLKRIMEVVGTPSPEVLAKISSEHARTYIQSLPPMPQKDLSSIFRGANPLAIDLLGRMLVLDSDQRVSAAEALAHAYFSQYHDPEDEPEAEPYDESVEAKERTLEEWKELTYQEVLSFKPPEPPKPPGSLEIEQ
UniProt P49137, whole entry, looked up: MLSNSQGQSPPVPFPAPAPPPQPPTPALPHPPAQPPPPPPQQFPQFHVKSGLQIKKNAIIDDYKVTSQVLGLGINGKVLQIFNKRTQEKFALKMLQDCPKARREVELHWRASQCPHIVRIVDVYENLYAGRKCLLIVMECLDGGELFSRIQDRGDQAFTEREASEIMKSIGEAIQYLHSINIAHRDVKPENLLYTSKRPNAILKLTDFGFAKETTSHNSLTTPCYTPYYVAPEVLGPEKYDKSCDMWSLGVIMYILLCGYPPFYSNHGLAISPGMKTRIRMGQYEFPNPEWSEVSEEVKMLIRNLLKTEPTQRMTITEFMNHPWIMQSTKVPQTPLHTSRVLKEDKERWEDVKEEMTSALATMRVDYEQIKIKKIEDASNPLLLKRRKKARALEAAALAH
UniProt P27448: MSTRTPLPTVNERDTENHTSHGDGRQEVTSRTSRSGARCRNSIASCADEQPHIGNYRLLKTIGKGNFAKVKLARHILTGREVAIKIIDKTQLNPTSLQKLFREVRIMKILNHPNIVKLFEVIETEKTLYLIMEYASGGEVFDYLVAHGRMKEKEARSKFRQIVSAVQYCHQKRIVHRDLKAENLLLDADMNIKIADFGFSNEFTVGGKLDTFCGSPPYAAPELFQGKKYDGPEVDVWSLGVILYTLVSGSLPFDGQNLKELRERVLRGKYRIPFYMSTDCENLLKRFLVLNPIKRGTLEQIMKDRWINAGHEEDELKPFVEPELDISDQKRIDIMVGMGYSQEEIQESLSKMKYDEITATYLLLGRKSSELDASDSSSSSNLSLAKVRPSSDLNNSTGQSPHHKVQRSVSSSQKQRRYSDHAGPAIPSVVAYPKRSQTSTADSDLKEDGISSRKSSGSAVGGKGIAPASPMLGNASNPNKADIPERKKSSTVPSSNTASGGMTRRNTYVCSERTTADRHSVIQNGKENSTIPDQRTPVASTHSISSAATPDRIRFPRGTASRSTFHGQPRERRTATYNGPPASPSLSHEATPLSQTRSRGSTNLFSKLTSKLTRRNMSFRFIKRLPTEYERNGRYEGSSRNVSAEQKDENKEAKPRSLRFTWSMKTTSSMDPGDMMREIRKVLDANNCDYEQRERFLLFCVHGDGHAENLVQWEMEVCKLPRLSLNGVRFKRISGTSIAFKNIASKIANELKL
UniProt Q8N4C8: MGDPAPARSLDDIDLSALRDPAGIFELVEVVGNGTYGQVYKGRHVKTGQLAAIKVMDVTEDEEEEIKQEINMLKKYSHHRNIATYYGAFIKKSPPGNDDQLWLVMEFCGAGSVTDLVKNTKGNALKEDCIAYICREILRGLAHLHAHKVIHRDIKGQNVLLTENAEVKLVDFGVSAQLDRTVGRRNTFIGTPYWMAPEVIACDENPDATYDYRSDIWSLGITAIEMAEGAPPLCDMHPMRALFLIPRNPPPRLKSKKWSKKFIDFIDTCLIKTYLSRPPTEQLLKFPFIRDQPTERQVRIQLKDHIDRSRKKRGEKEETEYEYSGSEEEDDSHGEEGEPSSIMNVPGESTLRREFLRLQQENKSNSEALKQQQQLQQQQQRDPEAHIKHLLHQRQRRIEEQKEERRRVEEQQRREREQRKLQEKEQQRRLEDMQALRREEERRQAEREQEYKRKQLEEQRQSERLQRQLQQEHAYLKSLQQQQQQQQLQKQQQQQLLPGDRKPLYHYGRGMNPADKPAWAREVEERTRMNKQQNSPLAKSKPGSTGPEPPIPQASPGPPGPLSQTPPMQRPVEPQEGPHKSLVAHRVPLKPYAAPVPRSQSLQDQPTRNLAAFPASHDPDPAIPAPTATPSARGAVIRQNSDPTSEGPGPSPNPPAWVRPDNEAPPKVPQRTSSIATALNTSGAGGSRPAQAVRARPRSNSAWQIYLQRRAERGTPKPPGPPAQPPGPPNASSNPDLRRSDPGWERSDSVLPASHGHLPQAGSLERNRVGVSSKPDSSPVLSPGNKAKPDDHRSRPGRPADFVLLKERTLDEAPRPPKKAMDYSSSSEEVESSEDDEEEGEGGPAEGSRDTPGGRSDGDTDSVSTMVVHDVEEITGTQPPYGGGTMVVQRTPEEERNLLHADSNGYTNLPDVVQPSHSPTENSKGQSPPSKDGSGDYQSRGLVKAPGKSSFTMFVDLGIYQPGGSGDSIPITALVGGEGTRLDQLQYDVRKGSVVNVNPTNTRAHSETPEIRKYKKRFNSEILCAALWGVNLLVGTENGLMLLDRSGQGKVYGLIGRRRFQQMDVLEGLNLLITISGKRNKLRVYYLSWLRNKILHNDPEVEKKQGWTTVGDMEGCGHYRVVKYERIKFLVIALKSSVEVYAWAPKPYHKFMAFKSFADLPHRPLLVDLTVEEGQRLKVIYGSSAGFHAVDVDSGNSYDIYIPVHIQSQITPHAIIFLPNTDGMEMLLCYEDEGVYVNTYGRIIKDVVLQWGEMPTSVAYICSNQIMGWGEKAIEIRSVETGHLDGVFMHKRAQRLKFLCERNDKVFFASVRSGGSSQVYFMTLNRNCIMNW
UniProt Q16288, whole entry, looked up: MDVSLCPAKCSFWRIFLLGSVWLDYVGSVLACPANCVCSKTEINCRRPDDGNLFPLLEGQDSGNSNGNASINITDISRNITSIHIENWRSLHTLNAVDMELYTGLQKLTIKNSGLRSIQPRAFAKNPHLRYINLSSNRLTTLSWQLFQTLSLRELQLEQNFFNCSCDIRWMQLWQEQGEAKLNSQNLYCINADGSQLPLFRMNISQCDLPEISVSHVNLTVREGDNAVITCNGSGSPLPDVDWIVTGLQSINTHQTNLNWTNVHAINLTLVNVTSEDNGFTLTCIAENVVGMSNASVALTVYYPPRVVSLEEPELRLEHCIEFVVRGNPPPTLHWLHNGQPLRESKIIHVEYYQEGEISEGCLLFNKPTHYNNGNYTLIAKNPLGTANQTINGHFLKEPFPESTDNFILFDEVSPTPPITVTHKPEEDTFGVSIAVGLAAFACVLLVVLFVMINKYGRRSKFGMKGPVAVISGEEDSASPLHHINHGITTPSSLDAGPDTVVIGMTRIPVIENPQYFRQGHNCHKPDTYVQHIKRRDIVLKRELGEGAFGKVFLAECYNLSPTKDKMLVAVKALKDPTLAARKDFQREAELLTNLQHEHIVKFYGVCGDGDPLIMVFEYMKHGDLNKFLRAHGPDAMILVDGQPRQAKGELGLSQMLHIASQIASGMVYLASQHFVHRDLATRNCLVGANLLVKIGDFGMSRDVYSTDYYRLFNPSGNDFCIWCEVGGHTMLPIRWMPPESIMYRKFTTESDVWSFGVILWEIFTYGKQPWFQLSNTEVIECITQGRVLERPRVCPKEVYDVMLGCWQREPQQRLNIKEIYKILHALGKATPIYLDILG
UniProt P11309, whole entry, looked up: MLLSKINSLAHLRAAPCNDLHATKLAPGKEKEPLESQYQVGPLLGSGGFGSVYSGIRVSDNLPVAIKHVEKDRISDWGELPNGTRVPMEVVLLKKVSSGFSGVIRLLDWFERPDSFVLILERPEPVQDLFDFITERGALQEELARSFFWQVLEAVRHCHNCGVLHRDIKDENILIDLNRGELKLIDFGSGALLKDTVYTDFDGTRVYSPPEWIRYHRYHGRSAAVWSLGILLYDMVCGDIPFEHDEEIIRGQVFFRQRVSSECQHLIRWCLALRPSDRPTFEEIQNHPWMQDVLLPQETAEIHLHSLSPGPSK
UniProt Q9P1W9: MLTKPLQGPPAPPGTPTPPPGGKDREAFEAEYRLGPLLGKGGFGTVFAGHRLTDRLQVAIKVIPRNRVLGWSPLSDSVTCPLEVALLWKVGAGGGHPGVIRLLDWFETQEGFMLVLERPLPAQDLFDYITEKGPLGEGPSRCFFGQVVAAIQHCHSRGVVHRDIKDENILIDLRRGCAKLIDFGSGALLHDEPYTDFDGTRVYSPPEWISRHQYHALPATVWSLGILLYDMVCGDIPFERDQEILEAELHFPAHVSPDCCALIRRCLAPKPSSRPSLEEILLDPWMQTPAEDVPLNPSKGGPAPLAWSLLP
UniProt Q13882, whole entry, looked up: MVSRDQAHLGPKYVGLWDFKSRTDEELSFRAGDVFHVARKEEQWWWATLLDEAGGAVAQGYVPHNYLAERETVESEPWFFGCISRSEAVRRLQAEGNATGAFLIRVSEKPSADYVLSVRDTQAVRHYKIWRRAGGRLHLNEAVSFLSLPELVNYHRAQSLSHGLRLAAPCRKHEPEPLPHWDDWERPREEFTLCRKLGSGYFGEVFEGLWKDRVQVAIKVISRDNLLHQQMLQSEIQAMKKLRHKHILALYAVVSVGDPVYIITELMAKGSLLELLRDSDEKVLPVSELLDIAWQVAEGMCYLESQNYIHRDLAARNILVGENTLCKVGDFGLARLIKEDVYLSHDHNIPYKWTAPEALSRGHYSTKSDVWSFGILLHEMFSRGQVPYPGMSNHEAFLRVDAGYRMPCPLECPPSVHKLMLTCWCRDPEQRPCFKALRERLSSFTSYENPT
UniProt P37173, whole entry, looked up: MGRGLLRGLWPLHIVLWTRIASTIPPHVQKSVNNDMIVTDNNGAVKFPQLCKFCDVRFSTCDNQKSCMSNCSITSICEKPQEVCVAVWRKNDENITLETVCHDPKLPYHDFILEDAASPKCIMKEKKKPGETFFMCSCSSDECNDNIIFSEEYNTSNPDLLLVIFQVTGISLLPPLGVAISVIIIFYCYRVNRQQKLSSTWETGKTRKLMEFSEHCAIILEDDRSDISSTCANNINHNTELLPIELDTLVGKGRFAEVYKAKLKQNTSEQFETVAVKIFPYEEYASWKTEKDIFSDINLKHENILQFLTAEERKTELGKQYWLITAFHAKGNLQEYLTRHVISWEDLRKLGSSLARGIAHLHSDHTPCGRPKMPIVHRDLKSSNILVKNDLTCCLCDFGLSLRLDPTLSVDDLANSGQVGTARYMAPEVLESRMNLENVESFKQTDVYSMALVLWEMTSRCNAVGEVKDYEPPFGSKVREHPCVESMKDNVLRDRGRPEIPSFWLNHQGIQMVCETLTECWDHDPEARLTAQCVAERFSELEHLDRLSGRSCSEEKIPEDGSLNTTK

**Q.** Which residual activity [1] does the source give for `O=C1Nc2ccc3ncsc3c2/C1=C/c1c[nH]cn1` here?
**A.** Its residual activity is 71.6%.

**Q.** And the residual activity [2]?
**A.** Its residual activity is 131%.

**Q.** What about the residual activity [3] of the same molecule?
**A.** Its residual activity is 79.2%.

**Q.** And the residual activity [4]?
**A.** Its residual activity is 81.3%.

**Q.** What about the residual activity [5] of the same molecule?
**A.** The residual activity was 42.3%.

**Q.** What about the residual activity [6] of the same molecule?
**A.** The residual activity was 53.1%.

**Q.** And the residual activity [7]?
**A.** Its residual activity is 87.8%.

**Q.** And the residual activity [8]?
**A.** The residual activity was 27.1%.

**Q.** What about the residual activity [9] of the same molecule?
**A.** Its residual activity is 9.93%.

**Q.** What about the residual activity [10] of the same molecule?
**A.** The residual activity was 79.1%.

**Q.** What about the residual activity [11] of the same molecule?
**A.** The residual activity was 22%.

**Q.** And the residual activity [12]?
**A.** Its residual activity is 78.8%.

**Q.** And the residual activity [13]?
**A.** Its residual activity is 81.3%.

**Q.** And the residual activity [14]?
**A.** The residual activity was 6.34%.

**Q.** And the residual activity [15]?
**A.** Its residual activity is 81.2%.

**Q.** And the residual activity [16]?
**A.** The residual activity was 65.4%.

**Q.** And the residual activity [17]?
**A.** Its residual activity is 142%.

**Q.** And the residual activity [18]?
**A.** The residual activity was 96.1%.

**Q.** What about the residual activity [19] of the same molecule?
**A.** The residual activity was 86.6%.

**Q.** And the residual activity [20]?
**A.** The residual activity was 97.6%.

**Q.** What about the residual activity [21] of the same molecule?
**A.** Its residual activity is 20%.

**Q.** And the residual activity [22]?
**A.** The residual activity was 21.3%.

**Q.** And the residual activity [23]?
**A.** The residual activity was 24.4%.

**Q.** What about the residual activity [24] of the same molecule?
**A.** Its residual activity is 17.6%.

**Q.** And the residual activity [25]?
**A.** Its residual activity is 52.8%.

**Q.** What about the residual activity [26] of the same molecule?
**A.** Its residual activity is 40.1%.

**Q.** And the residual activity [27]?
**A.** The residual activity was 34.3%.

**Q.** And the residual activity [28]?
**A.** Its residual activity is 32%.

**Q.** What about the residual activity [29] of the same molecule?
**A.** The residual activity was 6.55%.

**Q.** What about the residual activity [30] of the same molecule?
**A.** The residual activity was 0.753%.

**Q.** And the residual activity [31]?
**A.** Its residual activity is 41%.

**Q.** What about the residual activity [32] of the same molecule?
**A.** The residual activity was 28.2%.

**Q.** And the residual activity [33]?
**A.** Its residual activity is 83%.

**Q.** What about the residual activity [34] of the same molecule?
**A.** The residual activity was 44.1%.

**Q.** And the residual activity [35]?
**A.** Its residual activity is 87.6%.

**Q.** And the residual activity [36]?
**A.** Its residual activity is 64.5%.

**Q.** And the residual activity [37]?
**A.** The residual activity was 20.4%.

**Q.** What about the residual activity [38] of the same molecule?
**A.** The residual activity was 62.9%.

**Q.** And the residual activity [39]?
**A.** The residual activity was 5.51%.

**Q.** What about the residual activity [40] of the same molecule?
**A.** Its residual activity is 18.8%.

**Q.** What about the residual activity [41] of the same molecule?
**A.** The residual activity was 75.1%.

**Q.** What about the residual activity [42] of the same molecule?
**A.** The residual activity was 60.1%.

Source: the kinase profiling compilation of Christmann-Franck et al. (2016)
